Earlier results in US4255420A, “Hormone combination and method for stimulation of ovulation” (VEB Berlin-Chemie, priority 1978, dated 1981).

Tested on: swine
Settings: after presynchronization and PMSG; considerable variation

## HCG: gonadotropin hormone derived from the urine of pregnant women
  time of ovulation after the HCG injection: about 42 hours
